## Ab-14 heavy chain CDR variants: yeast mating affinities

Data: MIT Lincoln Laboratory AlphaSeq set, Engelhart et al. 2022, doi:10.1038/s41597-022-01779-4, as distributed in FLAb.

All variants were tested on one target, the spike HR2 peptide PDVDLGDISGINAS (SARS-CoV-2).

Parent: Ab-14, a human scFv built as VH, a 15-residue (Gly4Ser)3 linker, VL. Only the CDRs of the heavy chain vary.
VH: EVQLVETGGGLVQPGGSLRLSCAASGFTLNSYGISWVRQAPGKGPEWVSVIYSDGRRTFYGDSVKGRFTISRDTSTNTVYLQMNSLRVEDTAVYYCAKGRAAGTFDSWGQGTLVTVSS
VL: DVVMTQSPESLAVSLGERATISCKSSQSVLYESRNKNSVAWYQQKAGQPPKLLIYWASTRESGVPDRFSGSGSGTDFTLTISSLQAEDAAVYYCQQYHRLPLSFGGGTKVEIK

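Variants in AAYL49 differ from the parent at up to three CDR positions; double and triple changes were sampled at random. The scFvs were displayed on barcoded MATa yeast, the peptide on MATalpha yeast. Pairs that bind mate more often; barcode pairs of the diploids are counted by sequencing. Scores were corrected for input abundance and mapped to Kd with protein pairs of known affinity run in the same pool. There are three technical replicates.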

The parent's heavy chain CDRs are GFTLNSYGIS, VIYSDGRRTFYGDSVK, GRAAGTFDS; each variant's own CDRs replace them letter for letter.
The read-out is the apparent dissociation constant on a log10 scale (nM): the lower, the stronger.
Replicates are averaged; those with no signal do not enter the mean.
"nd" marks a missing value. The strain was present, yet no cells mated with the target were sequenced in any replicate, which points to weak or no binding.
The list is sorted by this average, lowest first, undetected variants last.
Parent in this assay: reference entry 0.65, copy in this library 4.11 (one replicate of three).
As a blank, each scFv also met three strains without target: over library AAYL49, 15% of these pairings were detected, typically at 4.06 and seldom below 2.83.

mean, log10 nM	replicates with signal	CDR-H1	CDR-H2	CDR-H3
0.75	3 of 3	GEDLNYYGIS	VIYSDGRRTFYGDSVK	GRAAGTFDS
1.07	3 of 3	GFTLNHYGIS	VIYSDGMRTFYGDTVK	GRAAGTFDS
1.59	3 of 3	GFTLNSYGIN	VIYSDGRRTFYGSSVK	GMAAGTFDS
2.26	1 of 3	GFTLNSYGIS	EIYSDGRRTFYGPNVK	GRAAGTFDS
2.31	3 of 3	GFTLNSYGIS	VIYSDGRRTFYGQSVL	GRAAGTFDS
2.51	3 of 3	GFKLNSYGIS	VIYSDGRRTFYGDSVK	GRAAGTFIS
2.56	1 of 3	GFTLNSYGIS	VIYSDGRGTFFGDSDK	GRAAGTFDS
2.66	3 of 3	GFTLNSYGIS	TIYSDGRRTFYGDSVK	GRQAGTFDS
2.76	3 of 3	GFTLNSYGIS	VIYSDGIRHFYGDFVK	GRAAGTFDS
2.78	2 of 3	GFTLNSYGIS	VIYSDGRRTFLGDSVK	GRAAGTFMS
2.94	3 of 3	GFTLNSYGIS	VIYSDGLRTFYGDSIK	GRAAGTFRS
3.05	1 of 3	GFTLISYGIS	VDYSDGRRTFYGDSVK	GRAAGTTDS
3.21	1 of 3	GFCLNSYGIS	EIYSDGRRTFYGDSHK	GRAAGTFDS
3.36	1 of 3	GFTLNSYGIP	VIYFDGRRTFYGDSVK	GTAAGTFDS
3.40	1 of 3	GFTLNFKGIS	VIYSDGRRTFYGDSVK	GRAAGTIDS
3.42	1 of 3	GFTLNSYGIS	VIYSDFARTFYGDSVK	GRAAGTFMS
3.52	2 of 3	GFTLNSYGTS	VIYSDGRRTFYHDSVD	GRAAGTFDS
3.62	1 of 3	GFTAWSYGIS	VIYSDGRRTFPGDSVK	GRAAGTFDS
3.69	1 of 3	GFTLNSVGIS	VIYSDGKRTFYGDSGK	GRAAGTFDS
3.69	1 of 3	GFTLNSYGIS	VIYSDGRRTFYGDCVG	GRAAGTFDS
3.72	1 of 3	GFTLNRYTIS	VIYSDGRRTFYGDSVK	GRALGTFDS
3.77	1 of 3	GFTLNSWGIS	VIASDGRRTFYGCSVK	GRAAGTFDS
3.88	2 of 3	GFTLNSYGSS	VIYSDGRRTFYGDSVQ	GRAANTFDS
4.00	1 of 3	GFTLNSYGIS	VIWSDGRRTFYGDDVK	DRAAGTFDS
4.09	3 of 3	GFTLNSYGIS	VIYSDGRRTFYGDIVK	MMAAGTFDS
4.11	2 of 3	GITLNSYGIS	VIYSDNRRTFYGDSVK	GRAAGTFSS
4.12	2 of 3	GFTLNSYGIS	DIYSDGFRTFYGDSVK	GRAAGTFIS
4.20	2 of 3	GETCNSYGIS	VIYSDGRYTFYGDSVK	GRAAGTFDS
4.28	3 of 3	GQTLNSYGHS	VIYSDGRRTFRGDSVK	GRAAGTFDS
4.41	1 of 3	GFTLNSYGIS	VFYSYGSRTFYGDSVK	GRAAGTFDS
4.45	2 of 3	GTTLNSYGIS	VIYSDGRRTFYGDSVK	GEAAGTFTS
4.51	2 of 3	GFTLNSYGIS	VIYSDGRGTFYGDSVK	GRAARTFDS
4.55	2 of 3	GFTLNSYGIS	VPYSDGRSTFYGDSVK	GRAASTFDS
4.58	3 of 3	GFTLNSYTIS	VICSDSRRTFYGDSVK	GRAAGTFDS
4.75	1 of 3	GFTLWSMGIS	VIYSDGRRTFYGDSVK	LRAAGTFDS
4.82	2 of 3	GFTENSYGIS	VGYSDGRRTFYGDSVK	GRAAGTFDS
4.93	2 of 3	GFTLNSYGIS	IIYSDGRRTFYGDSVK	GRAAITFRS
4.96	3 of 3	GVTLNSYGIS	VIYSDGARTFIGDSVK	GRAAGTFDS
5.15	1 of 3	GFTLNSYGIS	VIMSCGRRTFYGDSVK	GRAAGTFDS
nd	0 of 3	GFTLNSYGIS	VEYSDVRYTFYGDSVK	GRAAGTFDS
nd	0 of 3	GFTANSYGIS	VGYSDGRRTFYGDLVK	GRAAGTFDS
nd	0 of 3	GFTLNFYGIF	VIYSDGRRTEYGDSVK	GRAAGTFDS
nd	0 of 3	GLTLNEYGIS	VKYSDGRRTFYGDSVK	GRAAGTFDS
nd	0 of 3	GFTLNSWGIS	VIYSDGRRTFYGDTVK	GRAAGTWDS
nd	0 of 3	GFTLNSYGIS	VKYSDGRRTFYGDSVK	GRAAGTFQS
nd	0 of 3	HFTLNSYCIS	VIYSDGRRTFYGDSVK	VRAAGTFDS
nd	0 of 3	GFTLNSYEIS	VIGNDGRRTFYGDSVK	GRAAGTFDS
nd	0 of 3	GFTLNSYGIS	VIYFDGRRTFYGDSVK	GRAVGTFDR
nd	0 of 3	GFTLDSYGIS	VIESDGRRTFYGDHVK	GRAAGTFDS
nd	0 of 3	HFTLNSYGIS	VTYSDGRRIFYGDSVK	GRAAGTFDS
nd	0 of 3	GTTLNSYGIS	VIFSDGRRTFYGDSVL	GRAAGTFDS
nd	0 of 3	IFTLNSYGIS	VIVSDGTRTFYGDSVK	GRAAGTFDS
nd	0 of 3	GFTLNAYGYS	VIYSDGRRTFYGDSVK	GRAAGTFDI
nd	0 of 3	GFTLNIYGIS	VIYSDGRRTFYGDSVK	GYAAGTFDS
nd	0 of 3	GFTLNSYGIS	VIYSDGRRTFYGDSVQ	GRAALTFDC
nd	0 of 3	GFTLNSYGIC	VIYSDGRRTFYGDSET	GRAAGTFDS
nd	0 of 3	GFTLNSYGIS	VIPSDGRRTFYHDSVK	GRAAGTFDS
nd	0 of 3	GFTNNSYGIS	VIYSDGRRTFYGDLVK	GRAAGMFDS
nd	0 of 3	GFTLNSYGIS	CIYSDGRRTFYGDLVH	GRAAGTFDS
nd	0 of 3	KFTLNSYGVS	VIYSDGRRTFYGDSVK	GRAAGSFDS
nd	0 of 3	GFCLNIYVIS	VIYSDGRRTFYGDSVK	GRAAGTFDS
nd	0 of 3	LFTLNSYGIS	VIYSDGRRTFYGDSVT	GRAARTFDS
nd	0 of 3	GRTLNSYGIS	VIYSDGRRTFYGDSVK	GRAEGWFDS
nd	0 of 3	GFTLNSYGIS	VIYSDSRRTFYGESVK	GRAAGPFDS
nd	0 of 3	GCTLNSYGIS	SIYSDGRRTFYSDSVK	GRAAGTFDS

The first 8 variants above that were never detected:

| CDR-H1 | CDR-H2 | CDR-H3 | mean, log10 nM | replicates with signal |
|---|---|---|---|---|
| GFTLNSYGIS | VEYSDVRYTFYGDSVK | GRAAGTFDS | nd | 0 of 3 |
| GFTANSYGIS | VGYSDGRRTFYGDLVK | GRAAGTFDS | nd | 0 of 3 |
| GFTLNFYGIF | VIYSDGRRTEYGDSVK | GRAAGTFDS | nd | 0 of 3 |
| GLTLNEYGIS | VKYSDGRRTFYGDSVK | GRAAGTFDS | nd | 0 of 3 |
| GFTLNSWGIS | VIYSDGRRTFYGDTVK | GRAAGTWDS | nd | 0 of 3 |
| GFTLNSYGIS | VKYSDGRRTFYGDSVK | GRAAGTFQS | nd | 0 of 3 |
| HFTLNSYCIS | VIYSDGRRTFYGDSVK | VRAAGTFDS | nd | 0 of 3 |
| GFTLNSYEIS | VIGNDGRRTFYGDSVK | GRAAGTFDS | nd | 0 of 3 |